According to paper PMC5606850, “Acidic C-terminal domains autoregulate the RNA chaperone Hfq” (eLife, 2017):

What was measured:
[1] = test system: Hfq-sCTD; test: RNA binding to Hfq-sCTD, fluorescence anisotropy; set-up: species or system E. coli; conditions: dsRNA product (D16-FAM·R16) versus ssRNA substrate (D16-FAM)
[2] = test system: RNA molecular beacon and Target RNA; test: RNA annealing kinetics (molecular beacon and Target RNAs), stopped-flow fluorescence; format: biochemical; conditions: all RNA targets (Target, Target-U6, Target-A18), 30 °C
Procedure: (§1) Figure 2. CTD and RNA occupy the same rim binding site. […] The CTD linker is shown in purple, the acidic tip in red and the N-terminal FITC as a yellow star. Hfq core is shown in cyan, with basic rim patches in dark blue. […] (C) Reaction scheme for annealing an RNA molecular beacon to a target RNA (open bar) ([Hopkins et al., 2011]; [Panja et al., 2015]). (D) Progress curves for annealing 50 nM molecular beacon and 100 nM Target by 50 nM Hfq65 hexamer at 30°C, measured by stopped-flow fluorescence. See Figure 2—figure supplement 3 for further data. (E) Contribution of core residues to CTD binding. […] Annealing of 100 nM Target RNA to 50 nM beacon RNA by Hfq65 and Hfq65 variants was measured by stopped flow fluorescence at 30°C in 1 × TNK buffer. […] The change in fluorescence emission intensity was normalized to the maximum fluorescence within an experiment. […]
To determine how much core residues that bind the CTD contribute to Hfq’s RNA annealing activity, we compared the effect of rim mutations on the rate of base pairing between an RNA molecular beacon and the 16 nt Target RNA by stopped-flow fluorescence spectroscopy (Figure 2C) ([Hopkins et al., 2011]). […]

[3] = test system: D16-FAM·R16; test: anisotropy time-course of D16-FAM·R16 binding, annealing and release; format: biochemical; conditions: 50 nM D16-FAM, 50 nM Hfq hexamer, then 50 nM R16, TNK buffer, 30 °C, three trials
Procedure: (§2) Figure 4. Shortening the CTD increases auto-inhibition by acidic residues. (A) Observed annealing rate constants for 100 nM target RNA and 50 nM molecular beacon with 0–200 nM Hfq hexamer at 30°C, measured by stopped-flow fluorescence. Black, Hfq102; red, Hfq-sCTD; cyan, Hfq65. (B) Fluorescence anisotropy assay for RNA binding and release. In stopped-flow FRET experiments, the dsRNA is released after pairing with its complementary strand ([Panja et al., 2013]; [Santiago-Frangos et al., 2016]). […] Remaining RNA was displaced from Hfq by excess ssDNA (400 nM DNA2). The averages and standard deviations for three trials are plotted for each Hfq variant. […] (D) Annealing of 5 nM ^32P-ChiX sRNA with 30 nM chiP mRNA without Hfq, or with Hfq65, Hfq102 or Hfq-sCTD, as indicated above each lane. Samples were loaded on a native polyacrylamide gel 60 min or 20 s after the components were mixed. […] (E) Fractions of free ChiX (black), ChiX·chiP dsRNA (light grey), ChiX·Hfq·chiP ternary complex (hatched) and ChiX·Hfq binary complex (dark grey) after 4 min of annealing, as analyzed by EMSA (Figure 4—figure supplement 2). […] Annealing of 100 nM Target RNA to 50 nM beacon RNA by Hfq variants was measured by stopped flow fluorescence at 30°C in 1 × TNK buffer. […] The change in fluorescence emission intensity was normalized to the maximum fluorescence within an experiment. […]

[4] = test system: ChiX sRNA and chiP mRNA; test: ChiX sRNA-chiP mRNA annealing, EMSA; format: biochemical, E. coli; conditions: 10 °C
Procedure: as §2

[5] = SDS-PAGE oligomerization of purified Hfq variants; format: physicochemical, E. coli; conditions: 4–20% SDS-PAGE, ~2.8 µg protein, 2% SDS, boiled
Procedure: as §1, with “binding. Interaction energy (Expected Energetic Contribution; EEC) in silico for a core residue in the Rosetta models (solid symbols and solid line; adjusted R^2 = 0.77) or the average annealing rates for Target and Target-A18 relative to Hfq65 (open symbols and dashed line; adjusted R^2 = 0.94) versus experimental CTD binding energy (∆∆G°) for each Hfq65 variant. The binding energy, ∆∆G° = –RTln(Kd^MUT/Kd), reflects the perturbation to CTD binding by a mutation in Hfq65.” for “binding.”

B1: Hfq-sCTD (protein)
chain: MAKGQSLQDPFLNALRRERVPVSIYLVNGIKLQGQIESFDQFVILLKNTVSQMVYKHAISTVVPSRPVSHHSNNAGGGTSSNYHHDSEETE
Krel = Kd(P)/Kd(S), Hfq-sCTD [1]: 14.0
annealing rates relative to Hfq102 [2]: decreased annealing rates relative to Hfq102 for all RNA targets
release of annealed dsRNA (D16-FAM·R16) from Hfq [3]: more dsRNA was released when the CTD is shortened
time to form ternary complex with ChiX and chiP ([4]; 5 nM ChiX, 30 nM chiP): ≤ 20 s
stability of ChiX·Hfq·chiP ternary complex ([4]; 33.3 nM Hfq hexamer, TNK buffer): least stable
oligomeric state on SDS-PAGE [5]: forms a mixture of dodecamer, hexamer and monomer
